This note sets out measurements from ChEMBL document CHEMBL5357012, “Dual N6/C7-Substituted 7-Deazapurine and Tricyclic Ribonucleosides with Affinity for G Protein-Coupled Receptors” (ACS Med Chem Lett, 2024).

The CC50 is the concentration that lowers cell viability or growth by half.

This series is described as follows: Cytotoxicity against human MRC5 cells assessed as reduction in cell viability measured after 3 days by resazurin dye based fluorimetric analysis. For orientation: The colour change of resazurin is a common sign of viable cells or microbes.

As for `OC[C@H]1O[C@@H](n2cc(C(F)(F)F)c3c(NCc4ccccc4Cl)ncnc32)[C@H](O)[C@@H]1O`, the CC50 at 72 h is > 64 µM.

For `C[C@H](Nc1ncnc2c1c(C(F)(F)F)cn2[C@@H]1O[C@H](CO)[C@@H](O)[C@H]1O)c1ccccc1`, the half-maximal cytotoxic concentration (CC50) at 72 h is > 64 µM.

As for `OC[C@H]1O[C@@H](n2cc(C(F)(F)F)c3c(NCc4ccccc4)ncnc32)[C@H](O)[C@@H]1O`, the 50% cytotoxic concentration (CC50) at 72 h was > 64 µM.

For the compound `OC[C@H]1O[C@@H](n2cc(C(F)(F)F)c3c(NCc4ccc(Cl)cc4)ncnc32)[C@H](O)[C@@H]1O`, the CC50 at 72 h was > 64 µM.

Turning to `C[C@@H](Nc1ncnc2c1c(C(F)(F)F)cn2[C@@H]1O[C@H](CO)[C@@H](O)[C@H]1O)c1ccccc1`, the CC50 at 72 h turned out to be 41.8 µM.

As to `C#Cc1cn([C@@H]2O[C@H](CO)[C@@H](O)[C@H]2O)c2ncnc(NCc3ccccc3)c12`, the CC50 at 72 h is > 64 µM.

Consider `OC[C@H]1O[C@@H](n2nc3c4c(ncnc42)N(Cc2ccccc2)C=C3)[C@H](O)[C@@H]1O`, for which the half-maximal cytotoxic concentration (CC50) at 72 h was > 64 µM.
